Read-outs that look alike come from different tables or passages of the source.
How the values were obtained:
[1] = test system: Human HT-29 Cell Xenografts; assay: HT-29 xenograft mice, Example 5 (Compound I / cetuximab, treatment day 12-34): tumor growth inhibition, regression, survival; type: in vivo; details: Ex.5: cetuximab 40 mg/kg 2x/wk ip
Experimental: Differences between groups were considered to be significant when the probability value (p) was ≦0.05.
For survival assessment, the percent of increased life space (ILS) was calculated as: 100×[(median survival day of treated group−median survival day of control group)/median survival day of control group]. Median survival was determined utilizing Kaplan Meier survival analysis. […] Differences between groups were considered significant when the probability value (p) was ≦0.05.
Tumor measurements were taken once or twice per week. All animals were individually followed throughout the experiment.

[2] = test system: Human HT-29 Cell Xenografts
[3] = Toxicity in Example 5 study: body weight change, mortality, gross observation
[4] = Toxicity in Example 6 study: body weight change, mortality, gross observation
[5] = Ex.6: cetuximab 40 mg/kg 2x/wk ip
[6] = Ex.6: cetuximab 40 mg/kg 2x/wk ip, animals of 10 per group
[7] = Ex.5: cetuximab 40 mg/kg 2x/wk ip

Cetuximab: monoclonal antibody that targets EGFR, sold as Erbitux by ImClone Systems
% ILS [1]: 16%
% Inhibition end of study Day: 34 [1]: 51%
% T/C end of study Day: 34 [1]: 49%
% Tumor Growth Inhibition [1]: 51%
Mean Tumor Volume (mm^3) End Study [1]: 1052.49 mm^3
Complete Regression ([1]; animals of 10 per group): 0
Partial Regression ([1]; animals of 10 per group): 0
50% Treatment Days ([1]; median survival): 37 days
tumor regression (partial or complete) ([2]; Ex.6: Compound I 25 mg/kg bid, cetuximab 40 mg/kg 2x/wk, irinotecan HCl 40 mg/kg q4d x5 monotherapies, cetuximab + irinotecan combination): no regressions
% ILS [2, 5]: 27%
% Inhibition end of study Day: 32 [2, 5]: 58%
% T/C end of study Day: 32 [2, 5]: 42%
% Tumor Growth Inhibition [2, 5]: 58%
Mean Tumor Volume (mm^3) End Study [2, 5]: 885.00 mm^3
Complete Regression [2, 6]: 0
Partial Regression [2, 6]: 0
50% Treatment Days ([2]; Ex.6: cetuximab 40 mg/kg 2x/wk ip, median survival): 38 days
# animals ≧ 20% BWL [3, 7]: 0
% Change in Body Weight at end of Study Day 34 [3, 7]: 7.2%
Max % Weight Gain [3, 7]: 8.9%
Max % Weight Loss [3, 7]: 3.7%
Mortality [3, 7]: 0
EGFR inhibitor related skin rash ([3]; Ex.5: cetuximab treated mice, self-limiting under continuous treatment): skin rash was common
# animals ≧ 20% BWL [4, 5]: 0
% Change in Body Weight at end of Study Day 32 [4, 5]: 4.0%
Max % Weight Gain [4, 5]: 4.0%
Mortality [4, 5]: 0
EGFR inhibitor related skin rash ([4]; Ex.6: cetuximab treated mice, self-limiting under continuous treatment): skin rash was common

— patent US8709419B2, “Combination therapy” (Hoffmann-La Roche, Inc., priority 2010, dated 2014)
